In ChEMBL document CHEMBL3797077, “Design and synthesis of N-(4-aminopyridin-2-yl)amides as B-Raf(V600E) inhibitors” (Bioorg Med Chem Lett, 2016) one finds Ratio IC50 data, which are given here for one compound.

The species entered for this assay is Homo sapiens. The assay can be described thus: Selectivity ratio of IC50 for recombinant wild type full length human GST-tagged B-Raf to IC50 for recombinant human N-terminal GST-tagged B-Raf V600E mutant.

In the case of `CC(C)(C)c1cccc(C(=O)Nc2cccc(Nc3ccnc(NC(=O)C4CC4)c3)c2)c1`, the Ratio IC50 worked out at 12.
